This note sets out measurements from ChEMBL document CHEMBL5321194 (J Med Chem, 2023).

The chains behind the UniProt entries cited, without tags or fusion partners.
UniProt Q9UPE1, whole entry: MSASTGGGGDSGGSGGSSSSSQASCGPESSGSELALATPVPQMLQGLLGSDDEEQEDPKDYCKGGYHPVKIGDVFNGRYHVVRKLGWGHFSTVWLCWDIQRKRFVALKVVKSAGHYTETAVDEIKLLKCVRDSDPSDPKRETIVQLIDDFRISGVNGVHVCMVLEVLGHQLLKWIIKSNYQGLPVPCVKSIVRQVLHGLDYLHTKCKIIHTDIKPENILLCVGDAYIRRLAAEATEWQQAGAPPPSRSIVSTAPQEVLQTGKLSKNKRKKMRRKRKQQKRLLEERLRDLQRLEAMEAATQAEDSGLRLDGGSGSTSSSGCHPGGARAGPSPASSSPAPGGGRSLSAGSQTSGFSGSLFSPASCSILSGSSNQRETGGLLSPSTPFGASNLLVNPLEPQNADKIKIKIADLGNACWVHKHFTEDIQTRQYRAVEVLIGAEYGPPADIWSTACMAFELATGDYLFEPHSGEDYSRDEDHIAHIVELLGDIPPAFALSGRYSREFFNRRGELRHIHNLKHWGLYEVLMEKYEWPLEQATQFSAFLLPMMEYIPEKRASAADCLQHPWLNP
UniProt Q96SB4, whole entry: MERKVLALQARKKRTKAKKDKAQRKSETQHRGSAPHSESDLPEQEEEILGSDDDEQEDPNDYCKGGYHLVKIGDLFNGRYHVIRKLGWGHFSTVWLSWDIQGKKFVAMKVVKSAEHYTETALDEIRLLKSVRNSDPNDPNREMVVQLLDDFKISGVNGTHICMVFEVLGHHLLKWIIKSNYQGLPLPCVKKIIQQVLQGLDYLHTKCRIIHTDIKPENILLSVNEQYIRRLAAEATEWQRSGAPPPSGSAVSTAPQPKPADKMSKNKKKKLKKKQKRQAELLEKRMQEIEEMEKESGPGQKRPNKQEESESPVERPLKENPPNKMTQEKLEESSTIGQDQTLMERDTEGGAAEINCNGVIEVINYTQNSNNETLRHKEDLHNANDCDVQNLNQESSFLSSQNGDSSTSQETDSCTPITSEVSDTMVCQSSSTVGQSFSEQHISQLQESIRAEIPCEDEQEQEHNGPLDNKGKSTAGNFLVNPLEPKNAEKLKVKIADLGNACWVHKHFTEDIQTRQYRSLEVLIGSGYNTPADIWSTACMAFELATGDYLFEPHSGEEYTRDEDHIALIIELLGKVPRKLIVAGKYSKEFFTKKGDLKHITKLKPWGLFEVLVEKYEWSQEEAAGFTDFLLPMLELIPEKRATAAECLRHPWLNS
UniProt P78362, whole entry: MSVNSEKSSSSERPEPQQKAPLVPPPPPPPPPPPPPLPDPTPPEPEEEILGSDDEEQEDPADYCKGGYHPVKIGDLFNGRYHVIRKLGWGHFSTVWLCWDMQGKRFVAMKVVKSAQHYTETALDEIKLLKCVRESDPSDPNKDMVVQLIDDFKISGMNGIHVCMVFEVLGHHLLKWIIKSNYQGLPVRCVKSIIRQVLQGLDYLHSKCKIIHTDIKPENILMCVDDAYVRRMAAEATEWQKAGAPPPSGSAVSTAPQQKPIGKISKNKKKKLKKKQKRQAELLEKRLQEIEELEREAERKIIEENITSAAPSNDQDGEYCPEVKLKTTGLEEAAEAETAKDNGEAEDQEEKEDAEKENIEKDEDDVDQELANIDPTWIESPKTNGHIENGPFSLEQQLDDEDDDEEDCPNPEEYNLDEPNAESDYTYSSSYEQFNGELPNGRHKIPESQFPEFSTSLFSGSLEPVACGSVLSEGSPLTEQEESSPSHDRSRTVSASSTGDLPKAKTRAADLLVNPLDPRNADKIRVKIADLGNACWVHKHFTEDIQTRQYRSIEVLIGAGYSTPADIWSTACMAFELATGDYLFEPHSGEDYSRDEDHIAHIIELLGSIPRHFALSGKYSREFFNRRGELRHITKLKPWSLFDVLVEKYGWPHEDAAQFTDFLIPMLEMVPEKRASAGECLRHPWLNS

Structures are written as SMILES. pEC50, pIC50, pKd: −log10 of the molar value.

One test concerns the target SRSF protein kinase 3 (Homo sapiens, UniProt Q9UPE1). The settings on record: time 10.0 min.
Test [1] concerns the target T1, SRSF protein kinase 1 (Homo sapiens, UniProt Q96SB4).
The target in test [2] is T1, SRSF protein kinase 1. This is another data set of the same source.
In test [3] the target is T2, SRSF protein kinase 2 (Homo sapiens, UniProt P78362).
The target in test [4] is T1, SRSF protein kinase 1. As to the kind of experiment: Inhibition of C-terminal nLuc-fused SRPK1 (unknown origin) transfected in intact HEK293T cells by NanoBRET assay.
The target in test [5] is T2, SRSF protein kinase 2. The source holds these as a separate data set.
The target in test [6] is T1, SRSF protein kinase 1. The source holds these as a separate data set.
Test [7] concerns the target T1, SRSF protein kinase 1. The settings on record: time 10.0 min.
The target in test [8] is T2, SRSF protein kinase 2. The conditions noted are these: time 10.0 min.

One may read the ΔTm as the shift of the melting midpoint relative to a reference. With `CN(c1ncccc1CNc1ccnc(-c2nc3ccc(C#N)cc3[nH]2)n1)S(C)(=O)=O`, at SRSF protein kinase 3, the ΔTm was determined as 5.8 °C.
With `CN1CCN(c2cc3nc(-c4nccc(NCc5cccnc5N(C)S(C)(=O)=O)n4)[nH]c3cc2F)CC1`, the ΔTm on SRSF protein kinase 3 is 3 °C.
Regarding `CN(c1ncccc1CNc1ccnc(-c2nc3cc(F)c(F)cc3[nH]2)n1)S(C)(=O)=O`, the ΔTm at SRSF protein kinase 3 was 5.5 °C.
The same measure, in the same setting: for `CN(c1ncccc1CNc1ccnc(-c2nc3cc(F)cc(Cl)c3[nH]2)n1)S(C)(=O)=O` the value was 7.9 °C; for `CN(c1ncccc1CNc1ccnc(-c2nc3cc(-c4cnn(C)c4)ccc3[nH]2)n1)S(C)(=O)=O`, 3.6 °C.
As to `CN(c1ncccc1CNc1cccc(-c2nc3cc(Cl)ccc3[nH]2)n1)S(C)(=O)=O`, the ΔTm at SRSF protein kinase 3 came out at 8.5 °C.
As to `CC(C)c1ccc2[nH]c(-c3nccc(NCc4cccnc4N(C)S(C)(=O)=O)n3)nc2c1`, at SRSF protein kinase 3, the ΔTm is 5.6 °C.
`CN(c1ncccc1Cn1ccc2cnc(-c3nc4cc(Cl)ccc4[nH]3)nc21)S(C)(=O)=O`: at SRSF protein kinase 3, the ΔTm worked out at 4.7 °C.
Same read-out and setting: then `CN(c1ncccc1CNc1ccnc(-c2nc3cc(Cl)ccc3[nH]2)n1)S(C)(=O)=O`, with 7.8 °C.
With `CN(c1ncccc1CNc1ccnc(-c2nc3ccc(F)cc3[nH]2)n1)S(C)(=O)=O`, the ΔTm on SRSF protein kinase 3 came out at 5.3 °C.
`CN(c1ncccc1CNc1ccnc(-c2nc3cc(Cl)cc(F)c3[nH]2)n1)S(C)(=O)=O`: the ΔTm on SRSF protein kinase 3 was found to be 7.8 °C.
`CN(c1ncccc1CNc1ccnc(-c2nc3cc(Cl)ccc3n2C)n1)S(C)(=O)=O`: the ΔTm at SRSF protein kinase 3 came to 7.1 °C.
In the case of `COc1ccc2[nH]c(-c3nccc(NCc4cccnc4N(C)S(C)(=O)=O)n3)nc2c1`, the ΔTm on SRSF protein kinase 3 turned out to be 3.8 °C.
As usually defined, the pKd is the negative decadic logarithm of the Kd, by convention in mol/L. In general, pIC50 refers to the IC50 on a negative log10 scale, so that one unit is a factor of ten. A higher pIC50 goes with a small IC50. Broadly, the pEC50 is the EC50 on a negative log10 scale, so that one unit is a factor of ten. For `CN(c1ncccc1CNc1ccnc(-c2nc3c(F)c(Cl)ccc3[nH]2)n1)S(C)(=O)=O`, the pKd on SRSF protein kinase 1 [1] was 6.84. Also, the pIC50 against SRSF protein kinase 1 [2] was 8.52; at SRSF protein kinase 2 [5], 7.10. Also, the values for the pEC50 on SRSF protein kinase 2 [3], at SRSF protein kinase 1 [4] and on SRSF protein kinase 1 [6] were 6.83, 7.01 and 7.36, respectively.
`CN(c1ncccc1CNc1ccnc(-c2nc3ccccc3[nH]2)n1)S(C)(=O)=O`: the thermal shift (ΔTm) on SRSF protein kinase 3 was 3.5 °C.
With `CN(c1ncccc1CNc1ccnc(-c2nc3cc(Cl)c(F)cc3[nH]2)n1)S(C)(=O)=O`, on SRSF protein kinase 3, the ΔTm was 7 °C.
Turning to `CN(c1ncccc1Cn1ccc2cnc(-c3nc4cc(Cl)ccc4[nH]3)cc21)S(C)(=O)=O`, the ΔTm on SRSF protein kinase 3 worked out at 4 °C.
For `Cc1ccc2nc(-c3nccc(NCc4cccnc4N(C)S(C)(=O)=O)n3)[nH]c2c1`, the ΔTm on SRSF protein kinase 3 stood at 6.5 °C.
For `CN(c1ncccc1CNc1ccnc(-c2cc3cc(Cl)ccc3[nH]2)n1)S(C)(=O)=O`, the values for the ΔTm at SRSF protein kinase 1 [7], at SRSF protein kinase 2 [8] and at SRSF protein kinase 3 were 0.5 °C, 0.3 °C and 1 °C, respectively.
Consider `CN(c1ncccc1CNc1nc(-c2nc3cc(Cl)ccc3[nH]2)ncc1Br)S(C)(=O)=O`, for which the ΔTm on SRSF protein kinase 3 worked out at 5.1 °C.
On the same count and under the same terms, then `CN(c1ncccc1CNc1ccnc(-c2nc3cc(F)cc(F)c3[nH]2)n1)S(C)(=O)=O`, with 6.1 °C; and `CN(Cc1cccnc1N(C)S(C)(=O)=O)c1ccnc(-c2nc3cc(Cl)ccc3[nH]2)n1`, with 5.6 °C; and `CN(c1ncccc1CNc1ccnc(-c2nc3cc(N4CCOCC4)ccc3[nH]2)n1)S(C)(=O)=O`, with 1.9 °C.
